The term share remaining denotes the share of the starting amount still present when the sample was taken. Read a high share remaining as less turnover.

A short description of this series: in vitro. The conditions noted are these: simulated intestinal fluid.

Take `CC[C@H](C)[C@H](NC(=O)[C@H](CCCCN)NC(=O)[C@@H](NC(=O)[C@H](CCC(N)=O)NC(=O)[C@@H](N)CCCNC(=N)N)[C@@H](C)CC)C(=O)N[C@@H](Cc1c[nH]c2ccccc12)C(=O)N[C@@H](Cc1ccccc1)C(=O)N[C@@H](CCC(N)=O)C(=O)N[C@@H](CC(N)=O)C(=O)N[C@@H](CCCNC(=N)N)C(=O)N[C@@H](CCCNC(=N)N)C(=O)N[C@@H](CCSC)C(=O)N[C@@H](CCCCN)C(=O)N[C@@H](Cc1c[nH]c2ccccc12)C(=O)N[C@@H](CCCCN)C(=O)N[C@@H](CCCCN)C(=O)N[C@@H](CS)C(=O)O` [linear CPP]: the share remaining at 0.25 h, 0.5 mg/mL was 5.79%.

The values are drawn from US20190351069A1, “Coating of Nanoparticle Surfaces with Cyclopeptides for Improving Delivery of Agents Via the Oral Route” (Ruprecht-Karls-Universität Heidelberg, priority 2016, published 2019).
